Tested on: 60 clinical P. aeruginosa isolates
Set-up: species or system Pseudomonas aeruginosa
Conditions: predicted from mutations and resistance genes found by array in 60 isolates

SMILES	Cumulative resistance predicttion deduced from array
CC(C)(O/N=C(\C(=O)N[C@@H]1C(=O)N2C(C(=O)[O-])=C(C[n+]3ccccc3)CS[C@H]12)c1csc(N)n1)C(=O)O [Ceftazidim, ceftazidime]	40%
NCC[C@H](O)C(=O)N[C@@H]1C[C@H](N)[C@@H](O[C@H]2O[C@H](CN)[C@@H](O)[C@H](O)[C@H]2O)[C@H](O)[C@H]1O[C@H]1O[C@H](CO)[C@@H](O)[C@H](N)[C@H]1O [Amikacin, amikacin]	20%
C[C@@H](O)[C@H]1C(=O)N2C(C(=O)O)=C(SCCN=CN)C[C@H]12 [Imipenem, imipenem]	50%
NC[C@H]1O[C@H](O[C@H]2[C@H](O)[C@@H](O[C@H]3O[C@H](CO)[C@@H](O)[C@H](N)[C@H]3O)[C@H](N)C[C@@H]2N)[C@H](N)C[C@@H]1O [Tobramycin, tobramycin]	17%
